Target: T1, Fructose-1,6-bisphosphatase 1 (Homo sapiens) (UniProt P09467)
T1 sequence (whole entry): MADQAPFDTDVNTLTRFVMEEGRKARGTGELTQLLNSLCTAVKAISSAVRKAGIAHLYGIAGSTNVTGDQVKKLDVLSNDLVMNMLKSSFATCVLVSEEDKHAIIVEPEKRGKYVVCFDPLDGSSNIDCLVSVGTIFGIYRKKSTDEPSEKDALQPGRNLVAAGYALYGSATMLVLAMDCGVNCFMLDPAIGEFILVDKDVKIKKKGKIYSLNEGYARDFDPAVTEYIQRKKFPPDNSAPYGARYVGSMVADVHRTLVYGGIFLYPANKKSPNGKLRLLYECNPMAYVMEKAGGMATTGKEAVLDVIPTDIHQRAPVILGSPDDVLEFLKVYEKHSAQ
Conditions: 50 uM

SMILES | inhibition
O=C(O)CCc1c(C(=O)O)[nH]c2cccc([N+](=O)[O-])c12 | 57.5%
O=C(O)CCc1c(C(=O)O)[nH]c2cc([N+](=O)[O-])ccc12 | 79.5%

— ChEMBL document CHEMBL3392954, “Discovery of novel indole derivatives as allosteric inhibitors of fructose-1,6-bisphosphatase” (Eur J Med Chem, 2015)
